This experiment addresses Alpha-synuclein (Homo sapiens) (UniProt P37840). The experiment is described as follows: Inhibition of alpha-Synuclein (unknown origin) aggregation assessed as reduction in alpha-Syn fibrillation by measuring fluorescence intensity at 172.9 uM incubated for 30 days by ThT fluorescence assay. As to conditions: time 30.0 day.

Activity calls are given as the source filed them. The rule behind the calls is not given here.

Regarding `CCCN(CCc1cc(O)c(CCN(CCC)[C@H]2CCc3nc(N)sc3C2)cc1O)[C@H]1CCc2nc(N)sc2C1`, the inhibition entry is “Active”. In the case of `CCCN(CCc1cc(O)c(CCN(CCC)[C@H]2CCc3c(O)cccc3C2)cc1O)[C@H]1CCc2c(O)cccc2C1` it was “Active”.
